The list shows a part of the results, in another mix than the full data. Activity calls are given as the source filed them. Calls come from the whole dose curve; as a rule, active = well fitted inhibition curve with a large enough effect; inconclusive = small, poorly fitted or top-dose-only effect; inactive = no such curve, though single readings can be large or run the other way.
The compounds below were run against Bifunctional 3'-5' exonuclease/ATP-dependent helicase WRN (Homo sapiens) (UniProt Q14191) (assay: qHTS for Inhibitors of WRN Helicase). Conditions: WRN helicase unwinding, fluorescent forked duplex, kinetic; at 114 µM (top of the series) unless noted.
Procedure, shortened: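 Screening of the MLSMR collection measured strand separation of a quenched forked DNA duplex (100 nM) by 20 nM WRN with 2 mM ATP, all final. Compounds were preincubated with enzyme 15 min at room temperature.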
% is set by controls: 0 for no effect and ±100 for the full control effect.
Note: nearly all actives have a fitted effect of over 55% in size.

Chains of the proteins cited; added tags and fusions are not shown.
UniProt Q14191, whole entry: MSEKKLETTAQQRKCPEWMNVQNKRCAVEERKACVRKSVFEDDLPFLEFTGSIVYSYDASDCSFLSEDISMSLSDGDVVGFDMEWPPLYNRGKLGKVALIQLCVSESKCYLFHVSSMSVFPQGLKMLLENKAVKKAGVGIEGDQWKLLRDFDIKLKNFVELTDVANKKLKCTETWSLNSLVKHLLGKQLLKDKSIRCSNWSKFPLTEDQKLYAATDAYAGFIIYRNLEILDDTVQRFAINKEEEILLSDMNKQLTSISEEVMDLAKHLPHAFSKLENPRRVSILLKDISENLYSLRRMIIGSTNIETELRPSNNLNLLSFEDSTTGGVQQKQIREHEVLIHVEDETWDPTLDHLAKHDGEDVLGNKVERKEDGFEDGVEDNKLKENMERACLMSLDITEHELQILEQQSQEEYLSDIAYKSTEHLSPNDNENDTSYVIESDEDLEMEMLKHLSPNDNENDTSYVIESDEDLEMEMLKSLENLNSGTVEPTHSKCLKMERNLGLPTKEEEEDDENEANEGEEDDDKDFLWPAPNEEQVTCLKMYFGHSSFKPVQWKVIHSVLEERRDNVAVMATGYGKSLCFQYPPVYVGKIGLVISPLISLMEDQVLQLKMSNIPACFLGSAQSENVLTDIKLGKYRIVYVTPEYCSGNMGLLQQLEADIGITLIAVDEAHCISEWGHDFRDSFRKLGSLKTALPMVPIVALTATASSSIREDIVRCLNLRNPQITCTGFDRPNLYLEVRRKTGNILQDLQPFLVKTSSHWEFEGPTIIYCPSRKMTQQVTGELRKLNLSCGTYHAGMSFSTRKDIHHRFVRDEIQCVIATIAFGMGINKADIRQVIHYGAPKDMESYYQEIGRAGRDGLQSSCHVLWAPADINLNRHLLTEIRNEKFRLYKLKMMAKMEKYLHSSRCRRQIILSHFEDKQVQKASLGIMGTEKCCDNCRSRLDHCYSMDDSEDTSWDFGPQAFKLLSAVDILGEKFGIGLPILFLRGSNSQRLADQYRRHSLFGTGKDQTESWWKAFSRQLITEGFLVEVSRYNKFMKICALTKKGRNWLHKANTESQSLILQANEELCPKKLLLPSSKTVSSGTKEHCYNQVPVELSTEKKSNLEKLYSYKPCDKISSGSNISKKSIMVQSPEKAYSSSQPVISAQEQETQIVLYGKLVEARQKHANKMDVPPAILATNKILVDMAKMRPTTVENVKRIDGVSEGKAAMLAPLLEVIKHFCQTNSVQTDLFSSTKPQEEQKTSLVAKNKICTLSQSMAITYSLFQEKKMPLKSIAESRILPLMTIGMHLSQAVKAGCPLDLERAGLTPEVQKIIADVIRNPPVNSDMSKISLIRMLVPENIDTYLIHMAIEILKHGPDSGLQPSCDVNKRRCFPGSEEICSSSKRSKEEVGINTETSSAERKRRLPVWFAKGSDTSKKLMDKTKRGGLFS

Structure (SMILES) | activity change, negative = inhibition
COc1ccccc1OP(C)(=O)Nc1c(C)n(C)n(-c2ccccc2)c1=O (stereo unspecified) | inactive: 8.55%
CP(=O)(Oc1ccccc1)N1CCOC1=O (stereo unspecified) | inactive: 9.02%
CCc1ccc(OP(C)(=O)Nc2cccnc2)cc1 (stereo unspecified) | inactive: 3.27%
Nc1ccc2c(ccc3cccnc32)n1.O=[N+]([O-])c1cc([N+](=O)[O-])c(O)c([N+](=O)[O-])c1 | inactive: 3.85%
CCOC(=O)c1ccc(NP(C)(=O)Oc2ccc(Cl)cc2)cc1 (stereo unspecified) | inactive: 8.64%
CP(=O)(OC12CC3CC(CC(C3)C1)C2)OC12CC3CC(CC(C3)C1)C2 | inactive: 9.58%
CCCCCCCCCCCCCCCC1C[N+](C)(C)CCOP(C)(=O)O1 (stereo unspecified) | inactive: -2.28%
CP(=O)(Nc1ccc(Cl)cc1Cl)Oc1ccccc1 (stereo unspecified) | inactive: -6.37%
CP(=O)(OCCOc1ccccc1)OCCOc1ccccc1 | inactive: 0.928%
Cc1cc(C)cc(OP(C)(=O)Nc2cccc(C(F)(F)F)c2)c1 (stereo unspecified) | inactive: -6.59%
COc1ccccc1OP(C)(=O)Nc1ccc(C)c(C)c1 (stereo unspecified) | inactive: -0.54%
COc1ccc(OP(C)(=O)Nc2ccccc2Br)cc1 (stereo unspecified) | inactive: 4.73%
Cc1c(NP(C)(=O)Oc2ccc(C(C)C)cc2)c(=O)n(-c2ccccc2)n1C (stereo unspecified) | inactive: 5.36%
O=[N+]([O-])c1cc([N+](=O)[O-])c(Nc2ccccn2)c([N+](=O)[O-])c1 | inactive: -25.9%
CP(=O)(Nc1ccccn1)Oc1ccccc1 (stereo unspecified) | inactive: 1.5%
COc1ccccc1OP(C)(=O)Nc1ccc(C)cc1C (stereo unspecified) | inactive: 6.11%
CCc1ccc(OP(C)(=O)O)cc1 | inactive: 9.06%
COc1ccccc1OP(C)(=O)Nc1ccc(Br)cc1 (stereo unspecified) | inactive: 3.22%
COc1ccc(OP(C)(=O)Nc2ccccn2)cc1 (stereo unspecified) | inactive: -17% [at 57.1 µM]
CN(C)CCOC(=O)C(O)(c1ccccc1)C1CCCC1 (stereo unspecified) | inactive: -1.44% [at 57.1 µM]
COc1ccccc1-c1ccccn1.O=[N+]([O-])c1cc([N+](=O)[O-])c(O)c([N+](=O)[O-])c1 | inactive: 0.12%

Structure (SMILES) | activity change, negative = inhibition
CCN(CC)CCCOC(=O)C(O)(c1ccccc1)c1ccccc1 | inactive: -0.0344%
COc1ccccc1OP(C)(=O)Nc1ccc(C)cc1 (stereo unspecified) | inactive: -6.35%
Cc1ccc(NP(C)(=O)Oc2ccccc2)c(C)c1 (stereo unspecified) | inactive: -4.4%
CCOC(=O)c1ccc(NP(C)(=O)Oc2ccccc2)cc1 (stereo unspecified) | inactive: -1.06%
Cc1cc(C)cc(OP(C)(N)=O)c1 (stereo unspecified) | inactive: -4.69%
COc1ccccc1OP(C)(=O)Nc1cc(Cl)ccc1C (stereo unspecified) | inactive: 1.05%
COc1ccc(OP(C)(=O)Nc2cccc(F)c2)cc1 (stereo unspecified) | inactive: 8.1%
O=[N+]([O-])c1cc([N+](=O)[O-])c(Nc2cccnc2)c([N+](=O)[O-])c1 | inactive: -1.07%
O=[N+]([O-])c1ccc2c(c1)C=Nc1ccccc1O2 | inactive: -17.5%
CC(C)(C)c1ccc(OP(C)(=O)Nc2ccc(SC(F)(F)F)cc2)cc1 (stereo unspecified) | inactive: -4.2%
Cc1cccc(C)c1OP(C)(N)=O (stereo unspecified) | inactive: 5.19%
CP(=S)(Nn1cnnc1)Oc1ccccc1 (stereo unspecified) | inactive: 1.35%
CP(=O)(Nc1ccccc1Br)Oc1ccccc1 (stereo unspecified) | inactive: -1.2%
COc1ccccc1OP(C)(=O)Nc1ccccc1 (stereo unspecified) | inactive: -5.76%
O=[N+]([O-])c1cc([N+](=O)[O-])c(O)c([N+](=O)[O-])c1.c1ccc(Oc2ccncc2)cc1 | inactive: -11.8%
CCOC(=O)c1ccc(NP(C)(=O)Oc2ccc(OC)cc2)cc1 (stereo unspecified) | inactive: -12.3% [at 57.1 µM]
CCOP(C)(=S)SCC(=O)NC(C)C(=O)O (stereo unspecified) | inactive: -0.92% [at 57.1 µM]
CP(=O)(Nc1ccccn1)Oc1ccc(Cl)cc1 (stereo unspecified) | inactive: 177%
CP(=O)(Nc1ccc(SC(F)(F)F)cc1)Oc1ccc(Cl)cc1 (stereo unspecified) | inactive: -10.8%
Cc1cccc(C)c1OP(C)(=O)Nc1ccc(SC(F)(F)F)cc1 (stereo unspecified) | inactive: -5.26%
CP(=O)(Oc1ccccc1)OC(c1ccccc1)C(F)(F)F (stereo unspecified) | inactive: -7.42%

Structure (SMILES) | activity change, negative = inhibition
CP(=O)(NC(=O)Nc1ccccc1)Oc1ccccc1 (stereo unspecified) | inactive: -8.37%
CCc1ccc(OP(C)(=O)N2CCN(c3ccc([N+](=O)[O-])cc3)CC2)cc1 (stereo unspecified) | inactive: -5.42%
Cc1cc(C)cc(OP(C)(=O)Nc2ccc(SC(F)(F)F)cc2)c1 (stereo unspecified) | inactive: -8.91%
O=[N+]([O-])c1cc([N+](=O)[O-])c(-c2cnn(-c3ccccc3)c2)c([N+](=O)[O-])c1 | inactive: -10.3%
O=[N+]([O-])c1cc([N+](=O)[O-])c(-n2nnc3ccccc32)c([N+](=O)[O-])c1 | inactive: -17.6%
CN(Cc1cccnc1)C(=O)COc1ccc(Cl)c(Cl)c1.O=[N+]([O-])c1cc([N+](=O)[O-])c(O)c([N+](=O)[O-])c1 | inactive: 7.01%
CN1CCCCC1COC(=O)C1(O)c2ccccc2CCc2ccccc21 (stereo unspecified) | inactive: -12.7%
COc1ccccc1OP(C)(=O)Nc1c(C)cccc1C (stereo unspecified) | inactive: 4.77%
COc1ccc(-c2ccccn2)cc1.O=[N+]([O-])c1cc([N+](=O)[O-])c(O)c([N+](=O)[O-])c1 | inactive: -2.4% [at 57.1 µM]
CCCOc1ccc(NP(C)(=O)Oc2ccc(Cl)cc2)cc1 (stereo unspecified) | inactive: -19.3%
CP(=O)(Nc1ccc(SC(F)(F)F)cc1)Oc1ccccc1 (stereo unspecified) | inactive: -14%
CC1=C2N=C(C=C3N=C(C(C)=C4[N-][C@@](C)([C@@H]5N=C1[C@](C)(CCC(=O)NC[C@@H](C)OP(=O)([O-])O[C@H]1[C@@H](O)[C@@H](n6cnc7cc(C)c(C)cc76)O[C@@H]1CO)[C@H]5CC(N)=O)[C@@](C)(CC(N)=O)[C@@H]4CCC(N)=O)[C@@](C)(CC(N)=O)[C@@H]3CCC(N)=O)C(C)(C)[C@@H]2CCC(N)=O.[C-]#N.[Co+3] | inactive: -6.29%
O=[N+]([O-])c1cc([N+](=O)[O-])c(Nc2nnnn2CCO)c([N+](=O)[O-])c1 | inactive: 7.91%
Cc1ccc(C)c(NP(C)(=O)Oc2ccccc2)c1 (stereo unspecified) | inactive: 1.4% [at 57.1 µM]
Cc1cc(C)cc(OP(C)(=O)Nc2ccccn2)c1 (stereo unspecified) | inactive: -2.73%
CP(=O)(Nc1cccc(Br)c1)Oc1ccccc1 (stereo unspecified) | inactive: -4.97%
COc1ccccc1OP(C)(=O)Nc1cccc(Br)c1 (stereo unspecified) | inactive: 5.85%
CCOC(=O)c1ccc(NP(C)(=O)Oc2cc(C)cc(C)c2)cc1 (stereo unspecified) | inactive: -2.42%
Cc1cc(C)cc(OP(C)(=O)Nc2ccc(C)cc2C)c1 (stereo unspecified) | inactive: -0.508%
